For 31 compounds, IC50 results are on record in patent US10112926B2 (priority 2014, dated 2018).

Protein sequences, listed by entry. Tags and fused reporters are not part of them. Lines headed by an entry give the natural chain unless they say otherwise; changes in a name come on top.
UniProt Q8NEB9, whole entry: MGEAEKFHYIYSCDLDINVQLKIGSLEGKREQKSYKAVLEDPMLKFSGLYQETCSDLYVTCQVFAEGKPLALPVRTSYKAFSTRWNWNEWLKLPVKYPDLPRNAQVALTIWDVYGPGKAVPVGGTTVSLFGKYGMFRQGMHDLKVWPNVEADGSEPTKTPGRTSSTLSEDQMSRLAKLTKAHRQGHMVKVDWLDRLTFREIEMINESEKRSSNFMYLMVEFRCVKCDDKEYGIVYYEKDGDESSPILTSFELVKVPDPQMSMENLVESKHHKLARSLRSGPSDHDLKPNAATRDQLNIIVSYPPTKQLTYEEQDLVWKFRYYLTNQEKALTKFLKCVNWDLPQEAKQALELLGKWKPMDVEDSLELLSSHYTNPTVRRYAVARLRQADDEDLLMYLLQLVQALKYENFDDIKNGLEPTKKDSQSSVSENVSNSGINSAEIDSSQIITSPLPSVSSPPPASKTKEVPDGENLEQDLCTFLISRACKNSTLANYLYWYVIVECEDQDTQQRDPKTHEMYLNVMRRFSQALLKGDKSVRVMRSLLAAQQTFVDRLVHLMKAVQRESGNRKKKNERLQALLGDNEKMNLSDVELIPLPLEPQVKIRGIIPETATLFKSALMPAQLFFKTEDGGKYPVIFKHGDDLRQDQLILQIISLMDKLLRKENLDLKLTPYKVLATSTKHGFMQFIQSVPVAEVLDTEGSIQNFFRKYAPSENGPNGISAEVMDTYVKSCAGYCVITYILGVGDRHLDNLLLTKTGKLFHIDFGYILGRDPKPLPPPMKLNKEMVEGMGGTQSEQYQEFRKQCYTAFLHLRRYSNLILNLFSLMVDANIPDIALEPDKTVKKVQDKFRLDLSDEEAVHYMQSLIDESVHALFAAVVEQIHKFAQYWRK
UniProt Q9UBF8: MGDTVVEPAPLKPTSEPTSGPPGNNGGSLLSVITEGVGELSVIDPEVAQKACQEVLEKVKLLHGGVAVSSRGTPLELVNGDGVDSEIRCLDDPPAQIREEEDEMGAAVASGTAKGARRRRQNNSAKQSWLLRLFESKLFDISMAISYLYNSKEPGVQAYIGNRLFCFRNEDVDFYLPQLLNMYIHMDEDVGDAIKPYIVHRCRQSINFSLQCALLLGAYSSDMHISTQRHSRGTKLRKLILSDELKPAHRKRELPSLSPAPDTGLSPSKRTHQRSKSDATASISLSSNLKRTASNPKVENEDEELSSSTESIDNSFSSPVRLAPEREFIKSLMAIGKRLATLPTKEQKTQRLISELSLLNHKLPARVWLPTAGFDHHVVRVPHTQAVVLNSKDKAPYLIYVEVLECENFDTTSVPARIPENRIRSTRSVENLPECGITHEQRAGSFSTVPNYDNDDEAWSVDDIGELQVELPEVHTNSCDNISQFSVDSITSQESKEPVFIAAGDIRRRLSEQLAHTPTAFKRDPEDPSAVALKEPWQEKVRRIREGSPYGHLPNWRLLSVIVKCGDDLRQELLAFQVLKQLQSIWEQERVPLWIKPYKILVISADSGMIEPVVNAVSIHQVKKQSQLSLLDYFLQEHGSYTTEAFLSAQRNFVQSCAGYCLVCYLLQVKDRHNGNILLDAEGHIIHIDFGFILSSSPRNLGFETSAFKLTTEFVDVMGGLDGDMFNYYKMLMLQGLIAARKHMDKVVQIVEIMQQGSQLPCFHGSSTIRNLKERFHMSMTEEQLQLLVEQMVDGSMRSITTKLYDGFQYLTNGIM

Structures are written as SMILES. Where a name gives a salt, the structure may show the parent alone. Some results are limits rather than exact numbers.

For one assay, the target named is Vps34 (Homo sapiens (Human), UniProt Q8NEB9). The following applies: read-out: Assay C VPS34 IC50.
For the next assay, the target named is PI 4-kinase beta (Homo sapiens (Human), UniProt Q9UBF8). The following applies: read-out: Assay D PI4Kβ IC50.

For orientation: IC50 means the concentration at which inhibition is half-maximal. As to `Cc1ncc(-c2cc(-c3cc(S(=O)(=O)NCCC(C)(C)O)ccc3C)cnc2N)s1` [Example 4, 3-(6-Amino-5-(2-methylthiazol-5-yl)pyridin-3-yl)-N-(3-hydroxy-3-methylbutyl)-4-methylbenzenesulfonamide], on Vps34, the concentration for half-maximal inhibition (IC50) is 1.95 µM.

For `Cc1cc(-c2cc(-c3cc(S(=O)(=O)N4CC5(CCOC5)C4)ccc3C)cnc2N)on1` [Example 19.1, 5-(5-(6-oxa-2-azaspiro[3.4]octan-2-ylsulfonyl)-2-methylphenyl)-3-(3-methylisoxazol-5-yl)pyridin-2-amine trifluoroacetic acid salt], at Vps34, the half-maximal inhibitory concentration (IC50) is > 10 µM.

Regarding `Cc1cc(-c2cc(-c3cc(S(=O)(=O)N4CCCC4(C)C)ccc3C)cnc2N)on1` [Example 19.9, 5-(5-((2,2-dimethylpyrrolidin-1-yl)sulfonyl)-2-methylphenyl)-3-(3-methylisoxazol-5-yl)pyridin-2-amine trifluoroacetic acid salt], on Vps34, the half-inhibitory concentration (IC50) was > 10 µM.

For the compound `Cc1cc(-c2cc(-c3cc(S(=O)(=O)N4CCC[C@H]4CO)ccc3C)cnc2N)on1` [Example 19.15, (S)-(1-((3-(6-amino-5-(3-methylisoxazol-5-yl)pyridin-3-yl)-4-methylphenyl)sulfonyl)pyrrolidin-2-yl)methanol trifluoroacetic acid salt], the IC50 at Vps34 was > 10 µM.

As to `Cc1cc(-c2cc(-c3cc(S(=O)(=O)N4CCNC(=O)C4)ccc3C)cnc2N)on1` [Example 19.17, 4-((3-(6-amino-5-(3-methylisoxazol-5-yl)pyridin-3-yl)-4-methylphenyl)sulfonyl) piperazin-2-one trifluoroacetic acid salt], the half-maximal inhibitory concentration (IC50) at Vps34 was > 10 µM.

For the compound `COCC1CCN(S(=O)(=O)c2ccc(C)c(-c3cnc(N)c(-c4cc(C)no4)c3)c2)CC1` [Example 19.18, 5-(5-((4-(methoxymethyl)piperidin-1-yl)sulfonyl)-2-methylphenyl)-3-(3-methylisoxazol-5-yl)pyridin-2-amine trifluoroacetic acid salt], the 50% inhibitory concentration (IC50) on Vps34 was > 10 µM.

Consider `COC[C@@H]1COCCN1S(=O)(=O)c1ccc(C)c(-c2cnc(N)c(-c3cc(C)no3)c2)c1` [Example 19.20, (R)-5-(5-((3-(methoxymethyl)morpho-lino)sulfonyl)-2-methylphenyl)-3-(3-methylisoxazol-5-yl)pyridin-2-amine trifluoroacetic acid salt], for which the concentration for half-maximal inhibition (IC50) at Vps34 is > 10 µM.

Take `COC1(C)CN(S(=O)(=O)c2ccc(C)c(-c3cnc(N)c(-c4nc(C)no4)c3)c2)C1` [Example 37.2, 5-(5-((3-Methoxy-3-methylazetidin-1-yl)sulfonyl)-2-methylphenyl)-3-(3-methyl-1,2,4-oxadiazol-5-yl)pyridin-2-amine]: the half-inhibitory concentration (IC50) on Vps34 is > 10 µM.

As for `Cc1noc(-c2cc(-c3cc(S(=O)(=O)NC[C@H]4CCCO4)ccc3C)cnc2N)n1` [Example 37.5, (R)-3-(6-Amino-5-(3-methyl-1,2,4-oxadiazol-5-yl)pyridin-3-yl)-4-methyl-N-((tetrahydrofuran-2-yl)methyl)benzenesulfonamide], the 50% inhibitory concentration (IC50) at Vps34 was > 10 µM.

Consider `COC1(C)CN(S(=O)(=O)c2ccc(C)c(-c3cnc(N)c(-c4cc(C)no4)c3)c2)C1` [Example 37.20, 5-(5-((3-Methoxy-3-methylazetidin-yl)sulfonyl)-2-methylphenyl)-3-(3-methylisoxazol-5-yl)pyridin-2-amine], for which the half-maximal inhibitory concentration (IC50) at Vps34 is > 10 µM.

Regarding `Cc1noc(-c2cc(-c3cc(S(=O)(=O)NC(CO)C4CCOC4)ccc3C)cnc2N)n1` (stereo not shown) [Example 37.21, 3-(6-Amino-5-(3-methyl-1,2,4-oxadiazol-5-yl)pyridin-3-yl)-N-(2-hydroxy-1-(tetrahydrofuran-3-yl)ethyl)-4-methylbenzenesulfonamide], the IC50 on Vps34 was > 10 µM.

With `Cc1noc(-c2cc(-c3cc(S(=O)(=O)N4CC[C@H](O)C4)ccc3C)cnc2N)n1` [Example 37.32, (S)-1-((3-(6-Amino-5-(3-methyl-1,2,4-oxadiazol-5-yl)pyridin-3-yl)-4-methylphenyl)sulfonyl)pyrrolidin-3-ol hydrochloride], the IC50 at Vps34 is > 10 µM.

For the compound `Cc1noc(-c2cc(-c3cc(S(=O)(=O)NC4CCN(C(C)C)CC4)ccc3C)cnc2N)n1` [Example 37.34, 3-(6-Amino-5-(3-methyl-1,2,4-oxadiazol-5-yl)pyridin-3-yl)-N-(1-isopropylpiperidin-4-yl)-4-methylbenzenesulfonamide], the IC50 on Vps34 was > 10 µM.

As for `Cc1noc(-c2cc(-c3cc(S(=O)(=O)NCC(C)(F)F)ccc3C)cnc2N)n1` [Example 37.38, 3-(6-Amino-5-(3-methyl-1,2,4-oxadiazol-5-yl)pyridin-3-yl)-N-(2,2-difluoropropyl)-4-methylbenzenesulfonamide], the concentration for half-maximal inhibition (IC50) at Vps34 is > 10 µM.

For `Cc1ccc(S(=O)(=O)NCC(C)(C)O)cc1-c1cnc(N)c(-c2cc(C(=O)N3CCOCC3)no2)c1` [Example 42, 3-(6-Amino-5-(3-(morpholine-4-carbonyl)isoxazol-5-yl)pyridin-3-yl)-N-(2-hydroxy-2-methylpropyl)-4-methylbenzenesulfonamide], the 50% inhibitory concentration (IC50) on Vps34 was > 10 µM.

For `CONS(=O)(=O)c1ccc(C)c(-c2cnc(N)c(-c3nc(C)no3)c2)c1` [Example 46, 3-(6-Amino-5-(3-methyl-1,2,4-oxadiazol-5-yl)pyridin-3-yl)-N-methoxy-4-methylbenzenesulfonamide], the concentration for half-maximal inhibition (IC50) on Vps34 was > 10 µM.

In the case of `Cc1cc(-c2cc(-c3cc(S(=O)(=O)NCC4(O)CCCC4)ccc3C)cnc2N)on1` [Example 53, 3-(6-Amino-5-(3-methylisoxazol-5-yl)pyridin-3-yl)-N-((1-hydroxycyclopentyl)methyl)-4-methylbenzenesulfonamide], the half-inhibitory concentration (IC50) on PI 4-kinase beta worked out at 2.3 µM.

Consider `Cc1cc(-c2cc(-c3cc(S(=O)(=O)NCC4(O)CCOCC4)ccc3C)cnc2N)on1` [Example 54, 3-(6-Amino-5-(3-methylisoxazol-5-yl)pyridin-3-yl)-N-((4-hydroxytetrahydro-2H-pyran-4-yl)methyl)-4-methylbenzenesulfonamide], for which the half-inhibitory concentration (IC50) at PI 4-kinase beta was 5.2 µM.

Take `Cc1noc(-c2cc(-c3cc(S(=O)(=O)NCC4CCCO4)ccc3C)cnc2N)n1` (stereo not shown) [Example 57, 3-(6-Amino-5-(3-methyl-1,2,4-oxadiazol-5-yl)pyridin-3-yl)-4-methyl-N-((tetrahydrofuran-2-yl)methyl)benzenesulfonamide]: the 50% inhibitory concentration (IC50) on Vps34 is > 10 µM.

In the case of `Cc1ccc(S(=O)(=O)NCC(C)(C)O)cc1-c1cnc(N)c(-c2ccn(C)c2)c1` [Example 58, 3-(6-Amino-5-(1-methyl-1H-pyrrol-3-yl)pyridin-3-yl)-N-(2-hydroxy-2-methylpropyl)-4-methylbenzenesulfonamide hydrochloride], the IC50 on Vps34 was > 10 µM.

On to `Cc1ccc(S(=O)(=O)NCC(C)(C)O)cc1-c1cnc(N)c(-c2cnoc2C)c1` [Example 62, 3-(6-Amino-5-(5-methylisoxazol-4-yl)pyridin-3-yl)-N-(2-hydroxy-2-methylpropyl)-4-methylbenzenesulfonamide], for which the half-maximal inhibitory concentration (IC50) on Vps34 was > 10 µM.

With `Cc1ncc(-c2cc(-c3cc(S(=O)(=O)NCC4(CO)COC4)ccc3C)cnc2N)o1` [Example 67, 3-(6-Amino-5-(2-methyloxazol-5-yl)pyridin-3-yl)-N-((3-(hydroxymethyl)oxetan-3-yl)methyl)-4-methylbenzenesulfonamide], at PI 4-kinase beta, the IC50 stood at 2.3 µM.

Regarding `Cc1ncc(-c2cc(-c3cc(S(=O)(=O)NCC4(CO)COC4)ccc3C)cnc2N)s1` [Example 68, 3-(6-Amino-5-(2-methylthiazol-5-yl)pyridin-3-yl)-N-((3-(hydroxymethyl)oxetan-3-yl)methyl)-4-methylbenzenesulfonamide], at PI 4-kinase beta, the concentration for half-maximal inhibition (IC50) was 2.5 µM.

For `Cc1ccc(S(=O)(=O)NCC(C)(C)O)cc1-c1cnc(N)c(-c2nc(C(F)F)no2)c1` [Example 71, 3-(6-Amino-5-(3-(difluoromethyl)-1,2,4-oxadiazol-5-yl)pyridin-3-yl)-N-(2-hydroxy-2-methylpropyl)-4-methylbenzenesulfonamide hydrochloride], the IC50 at Vps34 was > 10 µM.

Turning to `Cc1cc(-c2cc(-c3cc(S(=O)(=O)NCCO)ccc3C)cnc2N)on1` [Example 73, 3-(6-Amino-5-(3-methylisoxazol-5-yl)pyridin-3-yl)-N-(2-hydroxyethyl)-4-methylbenzenesulfonamide], at PI 4-kinase beta, the IC50 was 1.1 µM.

For the compound `Cc1cnc(-c2cc(-c3cc(S(=O)(=O)NCC(C)(C)O)ccc3C)cnc2N)s1` [Example 90, 3-(6-Amino-5-(5-methylthiazol-2-yl)pyridin-3-yl)-N-(2-hydroxy-2-methylpropyl)-4-methylbenzenesulfonamide], the IC50 on PI 4-kinase beta is 0.75 µM.

Turning to `Cc1ncc(-c2cc(-c3cc(S(=O)(=O)N[C@H]4CC[C@H](O)CC4)ccc3C)cnc2N)o1` [Example 98, 3-(6-amino-5-(2-methyloxazol-5-yl)pyridin-3-yl)-N-((1r,4r)-4-hydroxycyclohexyl)-4-methylbenzenesulfonamide hydrochloride], the IC50 at Vps34 was 2.5 µM.

Regarding `Cc1ncc(-c2cc(-c3cc(S(=O)(=O)NCC4CC(O)C4)ccc3C)cnc2N)o1` (stereo not shown) [Example 104.1, 3-(6-amino-5-(2-methyloxazol-5-yl)pyridin-3-yl)-N-((3-hydroxycyclobutyl)methyl)-4-methylbenzenesulfon-amide], the half-inhibitory concentration (IC50) on PI 4-kinase beta is 2.4 µM.

On to `Cc1ncc(-c2cc(-c3cc(S(=O)(=O)NCC(C)(C)CO)ccc3C)cnc2N)o1` [Example 104.2, 3-(6-amino-5-(2-methyloxazol-5-yl)pyridin-3-yl)-N-(3-hydroxy-2,2-dimethylpropyl)-4-methylbenzenesulfon-amide], for which the IC50 on Vps34 was found to be 3.3 µM.

On to `Cc1ncc(-c2cc(-c3cc(S(=O)(=O)NCCCO)ccc3C)cnc2N)o1` [Example 104.6, 3-(6-amino-5-(2-methyloxazol-5-yl)pyridin-3-yl)-N-(3-hydroxypropyl)-4-methylbenzenesulfon-amide], for which the half-inhibitory concentration (IC50) on PI 4-kinase beta is 2.2 µM.

For the compound `Cc1noc(-c2cc(-c3cc(S(=O)(=O)NCC(C)(C)O)c(C)cc3F)cnc2N)n1` [Example 113, 5-(6-amino-5-(3-methyl-1,2,4-oxadiazol-5-yl)pyridin-3-yl)-4-fluoro-N-(2-hydroxy-2-methylpropyl)-2-methylbenzenesulfonamide], on PI 4-kinase beta, the IC50 was found to be 2.45 µM.
